Test: Solubility in water
Details: soluble to x% in water; salt as prepared

Solubility in water: 10%
Substance: 2-[(3-Phenylpropyloxy)methyl]morpholine hydrogen oxalate [Example 16]

Reference: patent US4605654A, “2-(arylalkyloxymethyl)morpholines and the central nervous system compositions” (P. F. Medicament, priority 1984, dated 1986)
